# Curated experimental data: properties

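These are experimental values that the OPERA curators gathered from public databases to train and test their QSAR models. The files give a single number for a compound and property, which may rest on several reports. Conditions of the individual experiments are not part of the data. The measured form (salt, isomer or mixture) is not always the one drawn. Unmarked limits or estimates from the upstream databases cannot be ruled out.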

Melting points are in °C. Boiling points are in °C, nominally at 760 mmHg. The octanol-water partition coefficient is given as log10; larger values mean a more lipophilic compound. Water solubility is log10 of mol/L, nominally at 25 °C; higher is more soluble. Vapor pressures (log10 mmHg) refer to near room temperature, 15 to 30 °C; higher is more volatile. Henry's law constant (air-water partitioning) is log10 of atm·m3/mol, nominally at 25 °C. The unbound fraction in human plasma runs from 0 (all bound) to 1 (all free). Intrinsic clearance (human, µL/min per 10^6 hepatocytes): higher is faster turnover, and 0 stands for none detected.

{"smiles": "CC1=CC(=O)CC(C)(C)C1=O", "logP": "1.12", "log VP (log10 mmHg)": "-1.173"}
{"smiles": "CCCCOCCOC(=O)c1ccccc1", "MP (°C)": "-57.5", "logP": "3.77", "log solubility (log10 mol/L)": "-3.322"}
{"smiles": "O=C1COCCN1c1ccc([N+](=O)[O-])cc1", "MP (°C)": "152", "log solubility (log10 mol/L)": "-2.606", "log VP (log10 mmHg)": "-6.091"}
{"smiles": "C[N+](C)([O-])CCCNS(=O)(=O)CCC(F)(F)C(F)(F)C(F)(F)C(F)(F)C(F)(F)C(F)(F)F", "MP (°C)": "148", "logP": "1.35", "log VP (log10 mmHg)": "-5.862"}
{"smiles": "Nc1nc(=O)c2c([nH]1)NC[C@@H](CNc1ccc(C(=O)N[C@@H](CCC(=O)O)C(=O)O)cc1)N2", "MP (°C)": "215.5", "logP": "-2.7", "log solubility (log10 mol/L)": "-3.219"}
{"smiles": "N[C@@H]1CONC1=O", "logP": "-0.9", "log solubility (log10 mol/L)": "0.934", "fu": "0.8"}
{"smiles": "C=COCCCN", "MP (°C)": "-57", "logP": "0.16", "log VP (log10 mmHg)": "0.629"}
{"smiles": "COC1CCCCCCCCCCC1", "logP": "5.061", "log solubility (log10 mol/L)": "-4.684", "log VP (log10 mmHg)": "-1.306"}
{"smiles": "C=CCCCCCCCCC(=O)N[C@@H](Cc1ccccc1)C(=O)O", "MP (°C)": "78.9", "log solubility (log10 mol/L)": "-4.04", "log VP (log10 mmHg)": "-8.355"}
{"smiles": "NCc1ccccc1CC(=O)N[C@@H]1C(=O)N2C(C(=O)O)=C(CSc3nnnn3CC(=O)O)CS[C@H]12", "logP": "-3.7", "log solubility (log10 mol/L)": "-3.421", "fu": "0.19"}
{"smiles": "COC(=O)c1cc(S(N)(=O)=O)ccc1S(=O)(=O)CCCO", "logP": "-0.3", "log solubility (log10 mol/L)": "-1.382"}
{"smiles": "CCNc1nc(NC(C)CC)nc(OC)n1", "stereo": "centres undefined", "log Henry constant (log10 atm·m3/mol)": "-8.445", "fu": "0.0461", "hepatic Clint (µL/min/10^6 cells)": "6.53"}
{"smiles": "CCCCCCCCCCCCCCCCCCNC(=O)/C=C\\C(=O)O", "MP (°C)": "111", "logP": "2.53", "log solubility (log10 mol/L)": "-4.794", "log VP (log10 mmHg)": "-5.152"}
{"smiles": "O=C1CC[C@H](N2C(=O)c3ccccc3C2=O)C(=O)O1", "logP": "0.25", "log VP (log10 mmHg)": "-9.666"}
{"smiles": "CC=CC(C)(O)CCC=C(C)C", "stereo": "centres undefined", "BP (°C)": "215", "log solubility (log10 mol/L)": "-2.402", "log VP (log10 mmHg)": "-1.222"}
{"smiles": "O=C1CCCCCCCCCCCCCCC1", "MP (°C)": "67.4", "logP": "7.77", "log solubility (log10 mol/L)": "-6.263", "log VP (log10 mmHg)": "-4.091"}
{"smiles": "CC(C#N)N(CC#N)CC#N", "stereo": "centres undefined", "MP (°C)": "80", "logP": "0.7", "log VP (log10 mmHg)": "-6.453"}
{"smiles": "COC(=O)/C=C(\\C)C=O", "BP (°C)": "181.2", "log VP (log10 mmHg)": "-0.223"}
{"smiles": "CCCCCCCCCCCCCCCCCCOC(=O)CC[C@H](NC(=O)CCCCCCCCCCC)C(=O)OCCCCCCCCCCCCCCCCCC", "MP (°C)": "72.3", "log VP (log10 mmHg)": "-6.62"}
{"smiles": "CO[Si](CCCS[Si](C)(C)C(C)(C)C)(OC)OC", "BP (°C)": "295.9", "logP": "6.27", "log VP (log10 mmHg)": "-2.803"}
{"smiles": "Cl.NC(CO)(CO)CO", "logP": "-3.6", "log VP (log10 mmHg)": "-6.56"}
{"smiles": "C=CCC(N)CC", "stereo": "centres undefined", "BP (°C)": "112", "logP": "1.33"}
{"smiles": "CCOCCN", "logP": "1.5", "log VP (log10 mmHg)": "1.369"}
{"smiles": "C=CCOC(=O)COC1CCCCC1", "log solubility (log10 mol/L)": "-2.078", "log VP (log10 mmHg)": "-0.354"}
{"smiles": "CCCCCCCCCCCCc1ccc(S(=O)(=O)[O-])cc1.CCCCCCCCCCCCc1ccc(S(=O)(=O)[O-])cc1.CCCCCCCCCCCCc1ccc(S(=O)(=O)[O-])cc1.CCCCCCCCCCCCc1ccc(S(=O)(=O)[O-])cc1.[Ce+4]", "logP": "2.2", "log solubility (log10 mol/L)": "-4.929"}
{"smiles": "Cc1cc(-c2cc(C(C)(C)C)cc(C(C)(C)C)c2)c(O)c(-c2cc(C(C)(C)C)ccc2OCCCOc2ccc(C(C)(C)C)cc2-c2cc(C)cc(-c3cc(C(C)(C)C)cc(C(C)(C)C)c3)c2O)c1", "MP (°C)": "186", "log VP (log10 mmHg)": "-7.206"}
{"smiles": "O=C1c2ccc3c4ccc5c6c(ccc(c7ccc(c2c37)C(=O)N1CCc1ccccc1)c64)C(=O)N(CCc1ccccc1)C5=O", "logP": "1.6", "log solubility (log10 mol/L)": "-8.238"}

Data: OPERA 2.9 data sets, kmansouri/OPERA on GitHub.